# Marks after values point to notes of the source that are not given here.
# Assay: Pharmacokinetic study in Beagle dogs (i.v., i.g., supralingual, sublingual; crossover, single dose);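 also: Single-dose crossover across four periods with one-week washout, plasma drug levels quantified by LC-MS/MS in positive ESI mode, lower quantification limit 0.2 ng/mL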
# Details: three-compartmental fit of i.v. profile in Beagle dogs
structure (smiles),measurement,value
Cc1nc2n(c(=O)c1CCN1CCC(c3noc4cc(F)ccc34)CC1)CCCC2 [risperidone],t1/2 (elimination half-life),2.43 ^e h
